Tests used:
[1] = rat, in vivo, iv; cited from earlier work
[2] = rat, in vivo
[3] = rat, in vivo; cited from earlier work

| Substance | dose eliminated [1] | amount still contained in the body [2] | route of excretion [3] |
| --- | --- | --- | --- |
| albumin-Gd-DTPA | 20 % of the dose |  |  |
| polylysine-Gd-DTPA |  | 7 % of the original dose | excreted unaltered by glomerular filtration via the kidney |

From patent US6916461B2, “Metal complexes that contain perfluoroalkyl, process for their production and their use in NMR diagnosis” (Schering AG, priority 1996, dated 2005)
